Assay results taken from patent US9302989B2 (priority 2010, dated 2016).

The chains behind the UniProt entries cited, without tags or fusion partners. Where a name states a change or a piece, a line headed by the entry shows the natural chain unless it says otherwise.
UniProt P43490: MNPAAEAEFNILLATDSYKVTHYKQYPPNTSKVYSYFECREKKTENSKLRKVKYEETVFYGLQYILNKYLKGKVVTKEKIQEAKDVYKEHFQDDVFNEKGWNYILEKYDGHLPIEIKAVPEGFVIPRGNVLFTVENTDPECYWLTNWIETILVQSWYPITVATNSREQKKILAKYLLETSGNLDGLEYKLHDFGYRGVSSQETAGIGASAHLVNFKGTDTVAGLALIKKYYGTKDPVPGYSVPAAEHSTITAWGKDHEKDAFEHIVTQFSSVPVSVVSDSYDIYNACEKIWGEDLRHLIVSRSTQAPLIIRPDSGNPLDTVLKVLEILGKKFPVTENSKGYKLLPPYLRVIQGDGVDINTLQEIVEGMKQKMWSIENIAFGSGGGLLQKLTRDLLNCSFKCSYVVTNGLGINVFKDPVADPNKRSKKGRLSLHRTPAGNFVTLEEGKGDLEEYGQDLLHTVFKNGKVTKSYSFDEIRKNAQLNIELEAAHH

Biological target: NAMPT (Homo sapiens (Human), UniProt P43490)
Conditions: read-out: TR-FRET Binding IC50 (μM) probe 1

Structure (SMILES) | IC50 [µM]
COc1ccc(NC(=O)c2ccc(NC(=O)N3Cc4ccccc4C3)cc2)cc1F [Example 117, N-{4-[(3-fluoro-4-methoxyphenyl)carbamoyl]phenyl}-1,3-dihydro-2H-isoindole-2-carboxamide] | 0.0481
CN(C)CCCCNC(=O)c1ccc(NC(=O)N2Cc3ccccc3C2)cc1 [Example 204, N-(4-{[4-(dimethylamino)butyl]carbamoyl}phenyl)-1,3-dihydro-2H-isoindole-2-carboxamide] | 0.2
CCCC(=O)N1CCC(c2ccc(NC(=O)N3Cc4ccccc4C3)cc2)CC1 [Example 405, N-[4-(1-butyrylpiperidin-4-yl)phenyl]-1,3-dihydro-2H-isoindole-2-carboxamide] | 0.012
O=C(N[C@H](CO)c1ccccn1)c1ccc(NC(=O)N2Cc3ccncc3C2)cc1 [Example 445, N-[4-({[(1S)-2-hydroxy-1-pyridin-2-ylethyl]amino}carbonyl)phenyl]-1,3-dihydro-2H-pyrrolo[3,4-c]pyridine-2-carboxamide] | 0.0141
COC(=O)c1n[nH]c2ccc(NC(=O)c3ccc(NC(=O)N4Cc5ccccc5C4)cc3)cc12 [Example 93, methyl 5-({4-[(1,3-dihydro-2H-isoindol-2-ylcarbonyl)amino]benzoyl}amino)-1H-indazole-3-carboxylate] | 0.0351
CN(C)CCC(=O)N1CCN(c2ccc(NC(=O)N3Cc4ccccc4C3)cc2)CC1 [Example 535, N-{4-[4-(N,N-dimethyl-beta-alanyl)piperazin-1-yl]phenyl}-1,3-dihydro-2H-isoindole-2-carboxamide] | 0.743
COc1ccc(NC(=O)c2ccc(NC(=O)N3Cc4ccccc4C3)cc2)cc1 [Example 165, N-{4-[(4-methoxyphenyl)carbamoyl]phenyl}-1,3-dihydro-2H-isoindole-2-carboxamide] | 0.0931
O=C(Nc1ccc(C(=O)N2Cc3ccccc3C2)cc1)N1Cc2ccccc2C1 [Example 186, N-[4-(1,3-dihydro-2H-isoindol-2-ylcarbonyl)phenyl]-1,3-dihydro-2H-isoindole-2-carboxamide] | 0.145
CCCCOCCCNC(=O)c1ccc(NC(=O)N2Cc3ccccc3C2)cc1 [Example 79, N-{4-[(3-butoxypropyl)carbamoyl]phenyl}-1,3-dihydro-2H-isoindole-2-carboxamide] | 0.0295
COc1cccc(CNC(=O)c2ccc(NC(=O)N3Cc4ccccc4C3)cc2)c1 [Example 71, N-{4-[(3-methoxybenzyl)carbamoyl]phenyl}-1,3-dihydro-2H-isoindole-2-carboxamide] | 0.0256
CCCCN(C)C(=O)c1ccc(NC(=O)N2Cc3ccccc3C2)cc1 [Example 183, N-{4-[butyl(methyl)carbamoyl]phenyl}-1,3-dihydro-2H-isoindole-2-carboxamide] | 0.14
O=C(Nc1ccc(N2CCN(C(=O)c3ccc(Cl)cc3)CC2)cc1)N1Cc2ccccc2C1 [Example 517, N-{4-[4-(4-chlorobenzoyl)piperazin-1-yl]phenyl}-1,3-dihydro-2H-isoindole-2-carboxamide] | 0.0758
Nc1ccccc1NC(=O)c1ccc(NC(=O)N2Cc3ccccc3C2)cc1 [Example 192, N-{4-[(2-aminophenyl)carbamoyl]phenyl}-1,3-dihydro-2H-isoindole-2-carboxamide] | 0.155
CC(C)[C@H](CO)NC(=O)c1ccc(NC(=O)N2Cc3ccccc3C2)cc1 [Example 256, N-(4-{[(2R)-1-hydroxy-3-methylbutan-2-yl]carbamoyl}phenyl)-1,3-dihydro-2H-isoindole-2-carboxamide] | 1.23
CN(CC1CCCO1)C(=O)c1ccc(NC(=O)N2Cc3ccccc3C2)cc1 (stereo not shown) [Example 229, N-{4-[methyl(tetrahydrofuran-2-ylmethyl)carbamoyl]phenyl}-1,3-dihydro-2H-isoindole-2-carboxamide] | 0.361
O=C(Nc1ccc(C(=O)N2CCN(CC3CCOC3)CC2)cc1)N1Cc2ccccc2C1 (stereo not shown) [Example 434, N-(4-{[4-(tetrahydrofuran-3-ylmethyl)piperazin-1-yl]carbonyl}phenyl)-1,3-dihydro-2H-isoindole-2-carboxamide] | 0.0507
O=C(N[C@H](CCO)c1ccccc1)c1ccc(NC(=O)N2Cc3ccccc3C2)cc1 [Example 115, N-(4-{[(1R)-3-hydroxy-1-phenylpropyl]carbamoyl}phenyl)-1,3-dihydro-2H-isoindole-2-carboxamide] | 0.0465
COc1cccc(CCNC(=O)c2ccc(NC(=O)N3Cc4ccccc4C3)cc2)c1OC [Example 57, N-(4-{[2-(2,3-dimethoxyphenyl)ethyl]carbamoyl}phenyl)-1,3-dihydro-2H-isoindole-2-carboxamide] | 0.0211
CCN(CC)C(=O)C1CCCN(C(=O)c2ccc(NC(=O)N3Cc4ccccc4C3)cc2)C1 (stereo not shown) [Example 200, N-(4-{[3-(diethylcarbamoyl)piperidin-1-yl]carbonyl}phenyl)-1,3-dihydro-2H-isoindole-2-carboxamide] | 0.186
CCC(C)C(=O)N1CC=C(c2ccc(NC(=O)N3Cc4ccccc4C3)cc2)CC1 (stereo not shown) [Example 459, N-{4-[1-(2-methylbutanoyl)-1,2,3,6-tetrahydropyridin-4-yl]phenyl}-1,3-dihydro-2H-isoindole-2-carboxamide] | 0.00362
CC[C@@H](CO)NC(=O)c1ccc(NC(=O)N2Cc3ccccc3C2)cc1 [Example 210, N-(4-{[(2S)-1-hydroxybutan-2-yl]carbamoyl}phenyl)-1,3-dihydro-2H-isoindole-2-carboxamide] | 0.235
O=C(NC[C@H]1CCCO1)c1ccc(NC(=O)N2Cc3ccncc3C2)cc1 [Example 427, N-(4-{[(2R)-tetrahydrofuran-2-ylmethyl]carbamoyl}phenyl)-1,3-dihydro-2H-pyrrolo[3,4-c]pyridine-2-carboxamide] | 0.0154
CN(C)Cc1ccc2c(c1)CN(C(=O)Nc1ccc(-c3c[nH]c(=O)c4ccccc34)cc1)C2 [Example 389, 5-[(dimethylamino)methyl]-N-[4-(1-oxo-1,2-dihydroisoquinolin-4-yl)phenyl]-1,3-dihydro-2H-isoindole-2-carboxamide] | 0.266
O=C(NCCCN1CCCC1=O)c1ccc(NC(=O)N2Cc3ccc(F)cc3C2)cc1 [Example 24, 5-fluoro-N-(4-{[3-(2-oxopyrrolidin-1-yl)propyl]carbamoyl}phenyl)-1,3-dihydro-2H-isoindole-2-carboxamide] | 0.0123
CCN(C(=O)c1ccc(NC(=O)N2Cc3ccccc3C2)cc1)C(C)C [Example 264, N-{4-[ethyl(isopropyl)carbamoyl]phenyl}-1,3-dihydro-2H-isoindole-2-carboxamide] | 1.92
COCCN(CCOC)C(=O)c1ccc(NC(=O)N2Cc3ccccc3C2)cc1 [Example 222, N-{4-[bis(2-methoxyethyl)carbamoyl]phenyl}-1,3-dihydro-2H-isoindole-2-carboxamide] | 0.297
O=C(Nc1ccc(C(=O)N2CCC(O)CC2)cc1)N1Cc2ccccc2C1 [Example 221, N-{4-[(4-hydroxypiperidin-1-yl)carbonyl]phenyl}-1,3-dihydro-2H-isoindole-2-carboxamide] | 0.295
O=C(Nc1cnn(Cc2ccccc2)c1)c1ccc(NC(=O)N2Cc3ccccc3C2)cc1 [Example 92, N-{4-[(1-benzyl-1H-pyrazol-4-yl)carbamoyl]phenyl}-1,3-dihydro-2H-isoindole-2-carboxamide] | 0.0346
